In US5610271A, “Kappa receptor selective opioid peptides” (Torrey Pines Institute for Molecular Studies, priority 1995, dated 1997) one finds IC50 data, which are given here for one compound.

Protein sequences, listed by entry. Tags and fused reporters are not part of them. Lines headed by an entry give the natural chain unless they say otherwise; changes in a name come on top.
UniProt P41144: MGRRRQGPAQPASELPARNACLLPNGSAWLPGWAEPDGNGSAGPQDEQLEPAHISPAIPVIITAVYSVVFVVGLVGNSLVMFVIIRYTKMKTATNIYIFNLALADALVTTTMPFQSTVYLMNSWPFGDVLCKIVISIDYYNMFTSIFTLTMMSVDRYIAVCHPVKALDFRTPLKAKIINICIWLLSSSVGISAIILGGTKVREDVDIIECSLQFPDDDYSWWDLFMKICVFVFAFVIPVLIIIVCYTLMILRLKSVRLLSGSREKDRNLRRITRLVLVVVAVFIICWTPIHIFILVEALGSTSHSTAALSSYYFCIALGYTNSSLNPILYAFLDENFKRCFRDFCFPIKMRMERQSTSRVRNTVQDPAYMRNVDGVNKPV

The target of this assay is T1, κ receptor (Cavia porcellus, UniProt P41144).
T1 construct: tissue homogenates prepared from guinea pig brains (cortex and cerebellum); tissue Harlan Bioproducts for Science (Indianapolis, Ind.); host or cells: guinea pig brain, cortex and cerebellum, crude membrane homogenate
Put plainly: Radioreceptor assay selective for the kappa receptor (inhibition of [3H]-U69,593 binding). Set-up: species or system guinea pig. Here is the method: Guinea pig brains, frozen in liquid nitrogen, were obtained from Harlan Bioproducts for Science (Indianapolis, Ind.). Frozen brains were thawed, the cerebella and cortex were removed and weighed. The combined cortex and cerebella were homogenized in 40 ml Tris-HCl buffer (50 mM, pH 7.4, 4° C.) containing 100 μM phenylmethylsulfonyl fluoride (PMSF) 5 mM MgCl2 and 1 mg/ml bovine serum albumin (BSA) and centrifuged (39000×g) (Model J2-HC; Beckman Instruments, Fullerton, Calif.) for 10 min at 4° C. The pellets were resuspended in fresh Tris-HCl buffer and incubated at 37° C. for 40 min. Following incubation, the suspensions were centrifuged as above, the resulting pellets resuspended in 100 volumes of Tris buffer and the suspensions combined. Membrane suspensions were prepared and used in the same day. Protein content of the crude homogenates ranged from 0.1-0.3 mg/ml as determined using the method described by Bradford in Anal. Biochem. 72:248-254 (1976), which is incorporated herein by reference.
Binding assays were carried out in polypropylene tubes. […] Assay tubes were incubated for 2.5 hr at 25° C. […] Bound radioactivity was counted on a Beta-plate Liquid Scintillation Counter (Life Technologies, Gaithersburg, Md.) and expressed in counts per minute (cpm). […] IC50 values were then calculated using the software […] […]

`CCCC[C@@H](NC(=O)[C@@H](Cc1ccccc1)NC(=O)[C@H](N)Cc1ccccc1)C(=O)N[C@H](CCCNC(=N)N)C(=O)O` [SEQ ID NO. 12, (D)Phe-(D)Phe-(D)Nle-(D)Arg] gave a 50% inhibitory concentration (IC50) of 0.8 nM.

By IC50 is commonly meant the point on the concentration scale where inhibition reaches its midpoint.
